Target: histamine H-1 receptors (Cavia porcellus, UniProt P31389)
Settings: Hill coefficient of the binding curve

Amino acid sequences for entries named in this document (tags omitted).
UniProt P31389, whole entry: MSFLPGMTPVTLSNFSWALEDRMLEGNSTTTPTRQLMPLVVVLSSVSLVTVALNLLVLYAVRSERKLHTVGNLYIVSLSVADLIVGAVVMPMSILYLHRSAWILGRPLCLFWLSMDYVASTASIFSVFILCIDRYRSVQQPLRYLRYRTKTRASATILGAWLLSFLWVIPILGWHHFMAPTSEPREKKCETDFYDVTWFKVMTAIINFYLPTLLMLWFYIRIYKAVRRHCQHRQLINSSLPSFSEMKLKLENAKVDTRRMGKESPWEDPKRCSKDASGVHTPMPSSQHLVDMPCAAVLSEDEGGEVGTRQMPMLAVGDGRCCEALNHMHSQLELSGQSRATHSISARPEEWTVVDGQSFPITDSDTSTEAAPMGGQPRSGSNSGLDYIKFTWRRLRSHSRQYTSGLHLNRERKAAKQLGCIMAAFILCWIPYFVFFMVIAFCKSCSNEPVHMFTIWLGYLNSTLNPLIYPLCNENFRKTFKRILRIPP

Inhibition of Pyrilamine Binding at H-1 Receptor, (nH): (0.98)
SMILES: COc1ccc(CN(CCN(C)C)c2ccccn2)cc1 [Pyrilamine]
